# The list is not random: actives were taken first. Their share in the collection is about 13%.
# Sfp PPTase inh: inhibitors of Bacillus subtilis Sfp phosphopantetheinyl transferase; actives 3.5% (n = 310,000); Q9F4F7; Biochemical Sfp PPTase activity, qHTS; Potency, µM, for the others: max response, negative = inhibition, hits mostly inhibitors; active = well fitted inhibition curve with a large enough effect; inconclusive = small, poorly fitted or top-dose-only effect, or another doubt; inactive = no such curve, though single readings can be large or run the other way;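 also: the enzyme is Sfp with the accession as filed and its product quenches rhodamine fluorescence; potency is read from the fitted curve at half-maximal effect; 0% = enzyme reaction without inhibitor and -100% = no enzyme wells; top concentration of the series not given in the record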
#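 Fluorescence-quenching assay: 15 nM Sfp-PPTase preincubated 15 min at room temperature with compound, then 5 uM rhodamine-CoA and 12.5 uM BHQ-2-labelled YbbR peptide added. Fluorescence (ex 525/em 598 nm) read at start and after 30 min; difference gives rate.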
# KDM4E inh: JMJD2E (human) inhibition. B2RXH2. JMJD2E catalytic domain, FDH-coupled NADH fluorescence (FDH is formaldehyde dehydrogenase). Potency, µM (top dose mostly 57.1 µM), inactives show at the highest dose activity change, negative = inhibition, hits mostly inhibitors. 230,000 tested, 1.6% active; active = well fitted inhibition curve with a large enough effect, not every such curve was filed as active; inconclusive = small, poorly fitted or top-dose-only effect, or another doubt; inactive = no such curve, though single readings can be large or run the other way;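 also: potency is read from the fitted curve at half-maximal effect; 0% = wells with enzyme and -100% = buffer wells without enzyme; nearly all actives have a fitted effect of over 50% in size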
# Lamin A splicing: changes lamin A minigene splicing in HeLa cells; HeLa LMNA splicing GFP/RFP minigene ratio, 48 h; Potency, µM (doses to about 46.1 µM), without a hit: at the top dose ratio change, negative = inhibition, most hits filed as inhibitors; 200,000 tested, 0.01% active; AID 1487; active = well fitted inhibition curve with a large enough effect in the signal ratio, with a control signal flat, not every such curve was filed as active; inconclusive = small, poorly fitted or top-dose-only effect, or effect the other way, or a change in a side signal; the % refers to the signal ratio; also: potency is read from the fitted curve at half-maximal effect; % is scaled to controls: 0 for no effect and ±100 for the full control effect
#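 Read-out is the ratio of GFP to DsRed2 object intensity, acquired by 488 nm laser-scanning cytometry on HeLa lamin A-EGFP minigene reporter cells. Compound incubation 48 hrs at 37 °C in Opti-MEM with 2% FBS; DMSO 0.5% final.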
# miR-21 reporter: raises the signal of a miR-21 reporter. HeLa miR-21 FLuc reporter, luciferase, 48 h. 340,000 tested, under 10 active. Potency, µM (highest dose often 38.3 µM), for the others: at the highest dose reporter change, positive = more light; active = well fitted rising curve with a large enough effect; inconclusive = small, poorly fitted or top-dose-only effect; inactive = no such curve, though single readings can be large or run the other way;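 note: % of control where 0% means no effect; miR-21 action dims this reporter so a rising signal means less miR-21 action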
#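 Compounds were titrated across several concentrations (up to approximately 40 uM) and incubated 48 hours with HeLa miR-21-FLuc reporter cells (miR-21 target sequence downstream of FLuc, endogenous miR-21). Readout was firefly luciferase luminescence after lytic detection reagent.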
# G9a inh: G9a (human) methyltransferase inhibition | Potency, µM (doses to about 102 µM), for the others: at the highest dose activity, negative = inhibition, most hits filed as inhibitors | Q96KQ7 | G9a H3K9 monomethylation, AlphaScreen, 2 h | 350,000 tested, 8.8% active | AID 504332; also: potency is read from the fitted curve at half-maximal effect; % is scaled to controls: 0 for no effect and ±100 for the full control effect; nearly all actives have a fitted effect of over 75% in size
#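 G9a (20 nM) was preincubated 15 min with compound, then reacted 2 h at room temperature with 500 nM biotin-H3K9 peptide and 20 µM SAM. Monomethyl-H3K9 detected by AlphaScreen using anti-H3K9me1 antibody.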
# ALDH1A1 block: ALDH1A1 (human) enzyme inhibition; P00352; Purified ALDH1A1, NADH fluorescence, propionaldehyde substrate; Potency, µM (top dose mostly 75.3 µM), without a hit: at the top dose activity, negative = inhibition, most hits filed as inhibitors; 220,000 tested, 7.3% active; AID 1030; active = well fitted inhibition curve with a large enough effect, not every such curve was filed as active; inconclusive = small, poorly fitted or top-dose-only effect, or another doubt; inactive = no such curve, though single readings can be large or run the other way;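 also: potency is read from the fitted curve at half-maximal effect; plate controls were no enzyme wells and a reference inhibitor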
# Numbers without * were called inactive; ? = inconclusive; . = not tested or not shown; ! = repeats disagree; [ ] = remark or other dose. Unless noted, calls follow the shape of the dose curve; as a rule, active = well fitted curve in the direction sought with a large enough effect; inconclusive = small, poorly fitted or top-dose-only effect, or another doubt; inactive = no such curve, though single readings can be large; an effect the other way counts as inactive or inconclusive.
(1) COc1ccccc1N1CCN(/N=C/C=C/c2ccccc2[N+](=O)[O-])CC1
(2) Cc1ccc(/C=N/N2CCN(c3ccccc3)CC2)cc1
(3) COc1cc(C(=O)N2CCN(c3ccccc3OC)CC2)c([N+](=O)[O-])cc1OC
(4) O=[N+]([O-])c1ccccc1/C=C/C=N/N1CCCCC1
(5) O=C(/C=C/c1ccccc1[N+](=O)[O-])N1CCCCC1
(6) O=[N+]([O-])c1ccccc1/C=C/C=N/Nc1nc(N2CCCCC2)nc(N2CCCCC2)n1
(7) Cc1ccccc1/C=N/N1CCN(c2ccccc2)CC1
(8) O=[N+]([O-])c1ccccc1/C=N/Nc1nc(N2CCCC2)nc(N2CCCC2)n1
compound no. | 1 | 2 | 3 | 4 | 5 | 6 | 7 | 8
Sfp PPTase inh | -3.9% | -8.8% | 11.8% | 18.9% | -2.1% | ? | -2.8% | 17.4%
KDM4E inh | -5.0% | 2.3% | -14.2% | 10.0% | -3.6% | ? | 3.2% | -0.8%
Lamin A splicing | . | . | -10.3%[46 µM] | . | . | ? | 1.1% | .
miR-21 reporter | -20.4% | -36.0% | 10.3% | -67.6% | -31.1% | -2.4% | -35.5% | 0.0%
G9a inh | 11.2µM* | -13.4% | 5.9%[0.501 µM] | 39.8µM* | -42.0% | 39.8µM* | 28.2µM* | -26.2%
ALDH1A1 block | . | -2.1% | -1.0% | ? | ? | ? | 4.5% | 4.4%

(9) O=[N+]([O-])c1ccccc1/C=N\N1CCN(c2ccccc2)CC1
(10) O=[N+]([O-])c1ccccc1/C=C\C=N\N1CCN(c2ccccc2)CC1
(11) NS(=O)(=O)c1ccc(N/N=C/C=C/c2ccccc2[N+](=O)[O-])cc1
(12) O=[N+]([O-])c1ccccc1S(=O)(=O)N1CCN(c2ccccc2)CC1
(13) O=[N+]([O-])c1ccccc1/C=N/N1CCN(c2ccc(Cl)cc2)CC1
(14) CSCC(=O)N1CCC(n2nccc2NC(=O)c2ccc3c(c2)OCO3)CC1
(15) CSCC(C)N1CCC(n2nccc2NC(=O)c2ccc3c(c2)OCO3)CC1 (configuration not stated)
(16) O=C(COc1ccc(Cl)cc1)NCc1nnc(SCC(=O)NC2CCCC2)o1
compound no. | 9 | 10 | 11 | 12 | 13 | 14 | 15 | 16
Sfp PPTase inh | -1.3% | 10.5% | 8.7% | -10.5% | 4.9% | 18.7% | 8.4% | -10.8%
KDM4E inh | -5.4% | -6.8% | . | . | -0.9% | . | . | -7.4%
Lamin A splicing | ? | . | . | . | 0.1% | . | . | 2.5%
miR-21 reporter | -49.5% | -22.8% | -71.8% | -2.8% | -0.5% | -41.4% | -3.4% | -2.8%
G9a inh | 10µM* | 11.2µM* | 31.6µM* | 2.6% | 17.8µM* | 44.7µM* | 27.7% | 4.0%[59 µM]
ALDH1A1 block | -13.4% | ? | . | . | -2.2% | . | . | -6.3%

(17) CCC1CCCCN1C(=O)CSc1nnc(CNC(=O)COc2ccc(Cl)cc2)o1 (configuration not stated)
(18) COC(=O)c1ccccc1NC(=O)CSc1nnc(Cc2ccc(Cl)cc2)o1
(19) COc1ccc(OC)c(NC(=O)CSc2nnc(CNC(=O)COc3ccc(Cl)cc3)o2)c1
(20) COc1ccc(NC(=O)c2ccc(Cl)nc2)cc1S(=O)(=O)N1CCOCC1
(21) CCc1ccccc1NC(=O)CN(C)C(=O)Cn1ncc(Cl)c(Cl)c1=O
(22) COc1ccc(NC(=O)Cn2ncc(Cl)c(Cl)c2=O)cc1S(=O)(=O)N1CCOCC1
(23) CCOC(=O)c1ccc(NC(=O)Cn2ncc(Cl)c(Cl)c2=O)cc1
(24) CCC(=O)Nc1ccc(C(=O)Cn2ncc(Cl)c(Cl)c2=O)cc1
compound no. | 17 | 18 | 19 | 20 | 21 | 22 | 23 | 24
Sfp PPTase inh | -1.8% | -18.5% | -6.4% | . | 11.4% | -1.1% | 0.7% | -3.0%
KDM4E inh | 0.3% | -13.1% | 0.6% | . | -3.9% | -16.7% | -0.5% | -29.1%
Lamin A splicing | 4.6% | 3.6% | 2.5% | . | ? | ? | -3.3% | ?
miR-21 reporter | -1.4% | -5.4% | -1.7% | . | ? | ? | ? | ?
G9a inh | -28.7% | ? | ? | -19.9%[12.7 µM] | -19.7% | -4.5%[59 µM] | 14.3%[59 µM] | .
ALDH1A1 block | 7.08µM* | 20µM* | 20µM* | . | -0.2% | 11.2µM* | 28.2µM* | 2.24µM*

(25) O=C(CN1C(=O)COc2ccc(Cl)cc21)Nc1ccccn1
(26) Cc1ccc(Cc2cnc(NC(=O)c3ccc4c(c3)CC(c3ccccc3)OC4=O)s2)cc1 (configuration not stated)
(27) Cc1ccc(NC(=O)CCn2c(=O)c3cccn3c3ccccc32)c(Cl)c1
(28) COc1ccc(C)cc1NS(=O)(=O)c1cnc(N)nc1
(29) COc1ccccc1N1CCN(Cc2nc(N)nc(Nc3ccccc3)n2)CC1
(30) CCOC(=O)N1CCN(Cc2nc(N)nc(Nc3ccc(Oc4ccccc4)cc3)n2)CC1
(31) Nc1nc(CN2CCCCCC2)nc(Nc2ccc(F)cc2)n1
(32) COc1ccccc1Nc1nc(N)nc(CN2CCC(Cc3ccccc3)CC2)n1
compound no. | 25 | 26 | 27 | 28 | 29 | 30 | 31 | 32
Sfp PPTase inh | 26.6% | . | . | . | 6.9% | -2.7% | -20.5% | ?
KDM4E inh | . | . | . | . | -1.3% | -4.6% | ? | -1.9%
Lamin A splicing | . | . | -3.2%[46 µM] | -2.7%[46 µM] | -2.6% | 15.5% | 5.7% | 6.5%
miR-21 reporter | 1.2% | -2.2% | -3.3% | 0.3% | -2.8% | 21.2% | -7.0% | -10.3%
G9a inh | 35.9% | 35.5%[59 µM] | -25.6%[59 µM] | -30.5%[59 µM] | 79.4µM* | 31.6µM* | 10µM* | -26.4%[12.7 µM]
ALDH1A1 block | . | . | . | . | -3.1% | ? | ? | 12.6µM*

(33) CCOC(=O)N1CCN(Cc2nc(N)nc(Nc3ccc(OC)cc3)n2)CC1
(34) CCCCc1c(C)nc2c(-c3ccc(OC)cc3)c(C)[nH]n2c1=O
(35) COc1ccc(/C=C2/NC(=O)CNC2=O)cc1
(36) O=C(CNC(=O)c1ccccc1)NCc1ccc(Cl)cc1
(37) CN(C)c1ccc(N=Cc2cccn2C)cc1
(38) NS(=O)(=O)c1ccc(NS(=O)(=O)c2ccc(NC(=S)Nc3ccccc3)cc2)cc1
(39) NS(=O)(=O)c1ccc(NC(=S)Nc2ccn(Cc3cccc4ccccc34)n2)cc1
(40) COc1ccccc1CNN
compound no. | 33 | 34 | 35 | 36 | 37 | 38 | 39 | 40
Sfp PPTase inh | 5.2% | . | -25.8% | 15.8% | -26.2% | -24.2% | 27.0% | -4.8%
KDM4E inh | -9.7% | . | . | -0.9% | . | -5.5% | -1.7% | -21.9%
Lamin A splicing | -7.3% | . | . | -4.4%[46 µM] | . | -16.5% | . | .
miR-21 reporter | -10.0% | -0.2% | -0.4% | -2.0% | -7.4% | -7.5% | 18.5% | 1.1%
G9a inh | -5.6%[12.7 µM] | 7.1%[59 µM] | ? | -4.5% | 8.91µM* | ? | ? | 25.1µM*
ALDH1A1 block | ? | . | . | 2.4% | . | ? | 12.6µM* | ?

# The closing 2 entries of the part above come first, to join the parts:
(39) NS(=O)(=O)c1ccc(NC(=S)Nc2ccn(Cc3cccc4ccccc34)n2)cc1
(40) COc1ccccc1CNN
(41) COc1ccccc1CNC(=O)Cc1ccccc1
(42) COc1ccccc1CNc1cncnc1
(43) COc1ccccc1CNc1ncccn1
(44) COc1ccccc1CNCCCCCCNCCCCCCCCNCCCCCCNCc1ccccc1OC
(45) COc1ccc(N2CCN(C3CCCN(C(=O)CN4CCOC4=O)C3)CC2)cc1 (configuration not stated)
(46) O=C(COC(=O)c1cccnc1)Nc1ccc2c(c1)OCO2
(47) COc1ccc(NC(=O)CSc2nccn2Cc2ccco2)cc1
(48) COc1ccccc1OCCNC(=O)C1CCN(C(C)=O)CC1
(49) CCCCCCCC/C=C\CCCCCCCC(=O)NCCc1ccc(O)c(O)c1
(50) COc1ccc(-n2ncc3c(NCCC4=CCCCC4)ncnc32)cc1
(51) COc1ccc(-c2noc(CSc3nnc(-c4ccc(Cl)cc4)n3C)n2)cc1OC
compound no. | 39 | 40 | 41 | 42 | 43 | 44 | 45 | 46 | 47 | 48 | 49 | 50 | 51
Sfp PPTase inh | 27.0% | -4.8% | 10.8% | 4.8% | 79.4µM* | ? | 16.1% | 13.5% | -3.7% | 15.5% | 8.7% | . | .
KDM4E inh | -1.7% | -21.9% | . | . | . | -1.3% | . | -15.2% | . | . | 20µM*! | . | .
Lamin A splicing | . | . | . | . | . | ? | . | 17.4%[46 µM] | . | . | ? | ? | .
miR-21 reporter | 18.5% | 1.1% | -39.3% | -4.6% | -0.7% | . | 0.6% | -5.4% | -37.8% | 1.9% | . | -37.6% | -8.1%
G9a inh | ? | 25.1µM* | ? | ? | . | 10µM*! | -11.3% | 6.0% | -32.0% | ? | ? | -30.2%[59 µM] | -14.3%[59 µM]
ALDH1A1 block | 12.6µM* | ? | . | . | . | 5.2% | . | -2.2% | . | . | 2.2% | . | .
